Test results from US20130005644A1, “CYCLIC AGONISTS AND ANTAGONISTS OF C5A RECEPTORS AND G PROTEIN-COUPLED RECEPTORS” (PROMICS PTY LIMITED, priority 1997, published 2013).

Legend:
C5a receptor [1] = target: T1, C5a receptor (Homo sapiens, UniProt P21730); test: Myeloperoxidase release from human PMNs mediated by 100 nM C5a (antagonist potency); assay type: cell-based; conditions: for IC50: 50% inhibition of C5a (100 nM)-caused release of MPO from PMNs, mean ± SE, read-out: pD2 ± SE (antagonist potency) (converted)
T1 construct: endogenous in cells; host or cells: fresh human polymorphonuclear leukocytes (PMNs), intact cells
T1 sequence (P21730 1-350): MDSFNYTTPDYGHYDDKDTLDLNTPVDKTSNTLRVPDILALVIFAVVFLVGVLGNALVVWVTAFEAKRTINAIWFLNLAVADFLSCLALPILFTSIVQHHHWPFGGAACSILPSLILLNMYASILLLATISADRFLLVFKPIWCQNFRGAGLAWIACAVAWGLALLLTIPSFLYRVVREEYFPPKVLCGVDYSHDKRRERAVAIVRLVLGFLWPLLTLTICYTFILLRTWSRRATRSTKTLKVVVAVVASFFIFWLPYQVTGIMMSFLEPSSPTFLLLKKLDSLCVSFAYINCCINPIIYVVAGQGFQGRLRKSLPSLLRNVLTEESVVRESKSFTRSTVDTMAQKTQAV

C5aR [2] = target: T2, C5aR (Homo sapiens, UniProt P21730); test: Receptor-binding assay: inhibition of 125I-C5a binding to intact human PMNs
T2 construct: endogenous in cells; host or cells: fresh human polymorphonuclear leukocytes (PMNs), intact cells
T2 sequence (P21730 1-350): T1 sequence (P21730 1-350)

C5a receptor [3] = target: T1, C5a receptor; test: Agonist activity in human PMNs; assay type: cell-based
Description: Cells were isolated as previously described (Sanderson et al, 1995) and incubated with cytochalasin B (5 μg/mL, 15 min, 37° C.). Hank's Balanced Salt solution containing 0.15% gelatin and peptide was added on to a 96 well plate (total volume 100 μL/well), followed by 25 μL cells (4×10^6/mL). To assess the capacity of each peptide to antagonise C5a, cells were incubated for 5 min at 37° C. with each peptide, followed by addition of C5a (100 nM) and further incubation for 5 min. Then 50 μL of sodium phosphate (0.1M, pH 6.8) was added to each well, the plate was cooled to room temperature, and 25 μL of a fresh mixture of equal volumes of dimethoxybenzidine (5.7 mg/mL) and H2O2 (0.51%) was added to each well. The reaction was stopped at 10 min by addition of 2% sodium azide. Absorbances were measured at 450 nm in a Bioscan 450 plate reader, corrected for control values (no peptide), and analysed by non-linear regression.

C5aR [4] = target: T2, C5aR; conditions: cited from earlier work
human fetal artery = conditions: C5a agonist analogues; cited from earlier work
C5a receptor [5] = target: T1, C5a receptor; conditions: read-out: PMN Enzyme Release EC50, C5a agonist analogues; cited from earlier work
[6] = 50% inhibition in the binding of [125I]C5a to intact PMNs, mean ± SE, read-out: pD2 ± SE (binding) (converted)

SMILES | IC50 (C5a receptor [1]) [µM] | IC50 (C5aR [2]; [6]) [µM] | Agonist Activity (C5a receptor [3]; Table 5, cyclic molecules) | further results
N=C(N)NCCC[C@H]1NC(=O)[C@H](Cc2c[nH]c3ccccc23)NC(=O)[C@@H](CC2CCCCC2)NC(=O)[C@@H]2CCCN2C(=O)[C@@H](NC(=O)[C@@H](N)Cc2ccccc2)CCCNC1=O [Compound 25, F-[OPdChaWr]] | 1.62 | 3.09 | – | –
N=C(N)NCCC[C@H]1NC(=O)[C@H](Cc2c[nH]c3ccccc23)NC(=O)[C@@H](CC2CCCCC2)NC(=O)[C@@H]2CCCN2C(=O)[C@@H](NC(=O)[C@@H](N)Cc2ccccc2)CNC1=O [Compound 14, F-[XPdChaWr]] | – | – | No | –
CC(=O)N[C@@H](Cc1ccccc1)C(=O)N[C@H]1CCNC(=O)[C@@H](CCCNC(=N)N)NC(=O)[C@H](Cc2c[nH]c3ccccc23)NC(=O)[C@@H](CC2CCCCC2)NC(=O)[C@@H]2CCCN2C1=O [Compound 23, AcF-[X^2PdChaWr]] | 0.813 | 17 | – | –
CSCC[C@H](NC(=O)[C@@H]1CCCN1C(=O)[C@H](CCCCN)NC(=O)[C@H](Cc1ccccc1)NC(=O)[C@H](CO)NC(=O)[C@@H](N)Cc1ccc(O)cc1)C(=O)N1CCC[C@H]1C(=O)N[C@@H](CC(C)C)C(=O)N[C@H](C)C(=O)N[C@@H](CCCNC(=N)N)C(=O)O [Compound 4] | – | – | – | Agonist Activity (C5a receptor [3]; dose range 0.1 nM-1 mM, human PMNs): Yes; IC50 (C5aR [4]; read-out: Binding Affinity IC50, PMN C5aR, Finch et al, 1997): 6 µM; IC50 (C5aR [4]; read-out: Receptor Affinity IC50, literature values (Finch et al, 1997; Kawai et al, 1991)): 6 µM; Kb (C5a receptor [1]): 0.0014 µM; EC50 (human fetal artery): 0.2 µM; EC50 (C5a receptor [5]): 4.1 µM
CC(=O)N[C@@H](CCCCN)C(=O)N[C@@H](Cc1ccccc1)C(=O)N[C@H]1CCCNC(=O)[C@@H](CCCNC(=N)N)NC(=O)[C@H](Cc2c[nH]c3ccccc23)NC(=O)[C@@H](CC2CCCCC2)NC(=O)[C@@H]2CCCN2C1=O [Compound 24, AcKF-[OPdChaWr]] | 0.186 | 11 | – | –
CC(=O)N[C@@H](Cc1ccccc1)C(=O)N[C@H]1CNC(=O)[C@@H](CCCNC(=N)N)NC(=O)[C@H](Cc2c[nH]c3ccccc23)NC(=O)[C@@H](CC2CCCCC2)NC(=O)[C@@H]2CCCN2C1=O [Compound 22, AcF-[XPdChaWr]] | 19.5 | 9.55 | – | –
N=C(N)NCCC[C@@H]1NC(=O)[C@H](Cc2c[nH]c3ccccc23)NC(=O)[C@@H](CC2CCCCC2)NC(=O)[C@@H]2CCCN2C(=O)[C@@H](NC(=O)[C@@H](N)Cc2ccccc2)CNC1=O [Compound 13, F-[XPdChaWR]] | – | – | No | –
N=C(N)NCCC[C@H]1NC(=O)[C@H](Cc2c[nH]c3ccccc23)NC(=O)[C@@H](CC2CCCCC2)NC(=O)[C@@H]2CCCN2C(=O)[C@@H](NC(=O)[C@@H](N)Cc2ccccc2)CCNC1=O [Compound 16, F-[X^2PdChaWr]] | – | 3.8 | No | IC50 (C5aR [2]; Table 5, cyclic molecules, read-out: Receptor Affinity): 3.7 µM
N=C(N)NCCC[C@@H]1NC(=O)[C@H](Cc2c[nH]c3ccccc23)NC(=O)[C@@H](CC2CCCCC2)NC(=O)[C@@H]2CCCN2C(=O)[C@@H](NC(=O)[C@@H](N)Cc2ccccc2)CCCNC1=O [Compound 27, F-[OPdChaWR]] | 0.0389 | 0.0617 | – | –

Where two headings read alike, the source gives them in different places.
